These results are taken from PubChem BioAssay AID493036 (Sanford-Burnham Center for Chemical Genomics, 2011).

The chains behind the UniProt entries cited, without tags or fusion partners.
UniProt P30989, whole entry: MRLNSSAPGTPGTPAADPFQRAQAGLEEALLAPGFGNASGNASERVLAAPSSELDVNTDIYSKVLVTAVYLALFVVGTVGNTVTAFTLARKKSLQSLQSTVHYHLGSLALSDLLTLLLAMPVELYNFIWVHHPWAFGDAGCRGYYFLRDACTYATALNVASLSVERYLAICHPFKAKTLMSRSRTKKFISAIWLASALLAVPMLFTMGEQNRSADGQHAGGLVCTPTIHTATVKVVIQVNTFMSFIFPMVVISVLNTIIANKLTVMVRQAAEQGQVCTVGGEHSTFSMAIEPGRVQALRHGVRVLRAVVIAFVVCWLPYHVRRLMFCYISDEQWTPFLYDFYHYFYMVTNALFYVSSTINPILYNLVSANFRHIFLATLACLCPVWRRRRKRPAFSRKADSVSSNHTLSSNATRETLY

The list shows a part of the results, in another mix than the full data. Calls of active or inactive are those of the source.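 How the source made its calls: active means activation at or above 40% of the spot to cytoplasm intensity ratio, with at least 20 cells analyzed; inconclusive means wells under 20 cells, flagged as cytotoxic or low count; inactive means the rest.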

The assay addresses Neurotensin receptor type 1 (Homo sapiens) (UniProt P30989). The experiment in a line: NTR1-driven beta-arrestin-GFP spot formation – imaging, U2OS cells, high content, primary screen (AID 493036) (AID 493036).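 Further: 0% = DMSO without peptide and 100% = 100 nM NTR1 peptide.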 Particulars: agonist mode, at 20 µM, active compounds read high.
As for `O=P(Nc1nc2ccccc2s1)(c1ccccc1)c1ccccc1`, the activation was inactive: -1.4%.

Consider `O=P(Nc1ccccn1)(c1ccc(Br)cc1)c1ccc(Br)cc1`, for which the activation is inactive: -0.2%.

For `CN(C)C1(CNC(=O)c2ccc(Cl)c(S(N)(=O)=O)c2)CCCCC1`, the activation was inactive: -0.7%.

For `COc1ccc(OP(C)(=O)Nc2cccc(Br)c2)cc1` (centres undefined), the activation was inactive: -0.8%.

As for `O=C(OC1CN2CCC1CC2)c1cccc(Cl)c1` (centres undefined), the activation is inactive: 1%.

As to `Nc1ccc([As](=O)(O)c2ccc([N+](=O)[O-])cc2)cc1`, the activation was inactive: 1%.

`C(Cc1nn[nH]n1)Cc1nn[nH]n1`: the activation was inactive: -1%.

As for `O=[N+]([O-])c1cc([N+](=O)[O-])c(NCC2CCS(=O)(=O)C2)c([N+](=O)[O-])c1` (centres undefined), the activation is inactive: 1.2%.

Regarding `O=[As](O)(c1ccccc1)c1ccc(O)cc1`, the activation was inactive: -1.4%.

Consider `O=[N+]([O-])c1ncn(CCn2cnc([N+](=O)[O-])n2)n1`, for which the activation is inactive: 0.6%.

With `c1nnnn1CCn1cnnn1`, the activation was inactive: 2%.

Take `CCOP(C)(=S)SCC(=O)NC(C)(CC)C(=O)O` (centres undefined): the activation was inactive: -2.1%.

Regarding `CC(C)C(=O)NC(Sc1ccccc1)C(Cl)(Cl)Cl` (centres undefined), the activation is inactive: -1.5%.

With `O=P(Nc1nccs1)(c1ccccc1)c1ccccc1`, the activation is inactive: 0.6%.

With `CP(=O)(Nc1ccc(SC(F)(F)F)cc1)Oc1ccc(F)cc1` (centres undefined), the activation is inactive: -0.3%.

As to `Cc1ccccc1NP(C)(=O)Nc1ccccc1C`, the activation was inactive: 2.1%.

With `CP(=O)(Nc1ccc2c(c1)OCCO2)Oc1ccccc1` (centres undefined), the activation was inactive: -0.1%.

Regarding `CC(C)(C)C(=O)NC(Sc1ncccn1)C(Cl)(Cl)Cl` (centres undefined), the activation is inactive: -0.2%.

Consider `Clc1n[nH]nc1-c1nn[nH][15n]1`, for which the activation is inactive: 0.1%.

Consider `CCOP(=O)(NC(=NC(C)c1ccccc1)NC(C)c1ccccc1)OCC` (centres undefined), for which the activation is inactive: 2.7%.

Regarding `O=[N+]([O-])c1cc([N+](=O)[O-])c(-n2nnc3ccccc32)c([N+](=O)[O-])c1`, the activation is inactive: 1%.

Turning to `O=P1(Nc2ccccn2)COc2ccccc2OC1`, the activation is inactive: -1.4%.

`CCC1=CC2Cc3nc4ccc(Cl)cc4c(N)c3C(C1)C2` (centres undefined): the activation is inactive: 7%.

As to `CN(CCCl)Cc1cc(Cl)c(NC2=NCCN2)c(Cl)c1`, the activation is inactive: 1.3%.

Regarding `CCOP(=O)(Nc1ccc(C)cn1)OCC`, the activation is inactive: 1.4%.

For `CC(C)/C=N\N=C(\N)N[N+](=O)[O-]`, the activation was inactive: -0.7%.

As for `CN(C(=O)Cc1ccc(Cl)c(Cl)c1)[C@@H]1CCCC[C@H]1N1CCCC1`, the activation was inactive: -2.9%.

With `CC1(CBr)Cn2c(nc3ccccc3c2=O)S1` (centres undefined), the activation was inactive: -0.2%.

Take `Cc1nc2ccc3ccccc3c2s1.O=[N+]([O-])c1cc([N+](=O)[O-])c(O)c([N+](=O)[O-])c1`: the activation was inactive: -0.5%.

Turning to `O=[As](O)(c1ccccc1Br)c1ccccc1Br`, the activation is inactive: -1.3%.

As to `O=[N+]([O-])c1cc([N+](=O)[O-])c(-c2cnn(-c3ccccc3)c2)c([N+](=O)[O-])c1`, the activation was inactive: 9.5%.

As to `COc1ccccc1CNC(=O)COC(=O)C(O)(c1ccccc1)c1ccccc1`, the activation is inactive: 1%.

As to `CCOC(=O)C(CC)C1=NC(C)(C)Cc2ccccc21.O=[N+]([O-])c1cc([N+](=O)[O-])c(O)c([N+](=O)[O-])c1` (centres undefined), the activation is inactive: 0.1%.

Turning to `O=[N+]([O-])c1cc([N+](=O)[O-])c(Nc2nnnn2CCO)c([N+](=O)[O-])c1`, the activation is inactive: -0.7%.

For `CN(C)C1(CNC(=O)c2ccc(S(C)(=O)=O)cc2)CCCCC1`, the activation is inactive: 1.5%.

As to `CC1=C2N=C(C=C3N=C(C(C)=C4[N-][C@@](C)([C@@H]5N=C1[C@](C)(CCC(=O)NC[C@@H](C)OP(=O)([O-])O[C@H]1[C@@H](O)[C@@H](n6cnc7cc(C)c(C)cc76)O[C@@H]1CO)[C@H]5CC(N)=O)[C@@](C)(CC(N)=O)[C@@H]4CCC(N)=O)[C@@](C)(CC(N)=O)[C@@H]3CCC(N)=O)C(C)(C)[C@@H]2CCC(N)=O.[C-]#N.[Co+3]`, the activation is inactive: -0.3%.

Consider `O=C(/C=C/c1ccccc1)OC1CN2CCC1CC2` (centres undefined), for which the activation was inactive: -0.4%.

For the molecule `CC1CCC(C(C)C)C(OP(=O)(Nc2ccccn2)c2ccccc2)C1` (centres undefined), the activation was inactive: 7.5%.

For `Cc1ccc(C(=O)OC2CN3CCC2CC3)cc1` (centres undefined), the activation was inactive: -1.4%.

For the molecule `Cc1nn(-c2ccccc2)c2c1P(=O)(N1CCOCC1)N(C)C(c1ccccc1)=N2` (centres undefined), the activation is inactive: -0.2%.

Consider `COc1cc(C2NCCC3(OCCO3)C2(C)C)cc(OC)c1OC.O=[N+]([O-])c1cc([N+](=O)[O-])c(O)c([N+](=O)[O-])c1` (centres undefined), for which the activation was inactive: 0.2%.

On to `CP(=O)(Nc1ccc(SC(F)(F)F)cc1)Oc1ccccc1` (centres undefined), for which the activation was inactive: -0.2%.

As to `Nc1cccc([As](=O)(O)c2ccccc2)c1`, the activation is inactive: 2.1%.

Consider `CCCOc1ccc(NP(C)(=O)Oc2ccc(Cl)cc2)cc1` (centres undefined), for which the activation is inactive: 0.6%.

On to `O=P1(Nc2ccc(Br)cn2)COc2ccccc2OC1`, for which the activation is inactive: 1.5%.

Turning to `NS(=O)(=O)c1cccc(NC(=O)COC(=O)C(O)(c2ccccc2)c2ccccc2)c1`, the activation was inactive: 1.2%.

For `Cc1ccc(OCC(=O)OC2CN3CCC2CC3)cc1` (centres undefined), the activation is inactive: 2.3%.

As for `O=[As](O)(c1cccs1)c1cccs1`, the activation is inactive: 1.6%.

As for `O=P1(Nc2ncccn2)COc2ccccc2OC1`, the activation was inactive: 0.6%.

In the case of `COc1ccccc1OP(C)(=O)Nc1c(C)cccc1C` (centres undefined), the activation was inactive: -0.8%.

`CN1CCCCC1COC(=O)C1(O)c2ccccc2CCc2ccccc21` (centres undefined): the activation is inactive: -1.5%.

Take `Nc1ccccc1[As](=O)(O)c1ccccc1`: the activation is inactive: -1.5%.

As to `O=C(O)COc1ccc([As](=O)(O)O)cc1[N+](=O)[O-]`, the activation is inactive: -1%.

As for `O=P(Nc1nccs1)(c1ccccc1)c1nc2ccccc2s1` (centres undefined), the activation was inactive: 0.2%.

Turning to `O=P(Nc1nccs1)(Oc1ccccc1)Oc1ccccc1`, the activation was inactive: -0.7%.

Consider `CCOP1(=S)c2c(C)nn(CCC#N)c2N=C(c2ccccc2F)N1C` (centres undefined), for which the activation was inactive: -0.5%.

On to `O=C(O)c1cccc(Nc2c([N+](=O)[O-])cc([N+](=O)[O-])cc2[N+](=O)[O-])c1`, for which the activation is inactive: 1.7%.

Take `CS(=O)(=O)c1cc([N+](=O)[O-])c2no[n+]([O-])c2c1`: the activation was inactive: 2.3%.

Consider `CN(C(=O)Cc1ccccc1)[C@@H]1CC[C@]2(CCCO2)C[C@H]1N1CCCC1`, for which the activation was inactive: -0.3%.

Regarding `CCOP1(=S)c2c(C)nn(CCC#N)c2N=C(c2ccc(F)cc2)N1C` (centres undefined), the activation was inactive: -0.1%.

As for `N#CCCN(C(=O)COC(=O)C(O)(c1ccccc1)c1ccccc1)c1ccc(F)cc1`, the activation is inactive: -0.2%.

With `CN(C(=O)Cc1ccc(Cl)c(Cl)c1)[C@H]1CC[C@@]2(CCCO2)C[C@@H]1N1CCCC1`, the activation is inactive: -0.8%.

Consider `CC1=NCCc2c1[nH]c1ccccc21.O=[N+]([O-])c1cc([N+](=O)[O-])c(O)c([N+](=O)[O-])c1`, for which the activation is inactive: -0.2%.

Consider `CN(C)C(=O)c1cc([N+](=O)[O-])cc2c1-c1c(cc([N+](=O)[O-])cc1[N+](=O)[O-])C2=O`, for which the activation was inactive: 1.6%.

As for `O=[N+]([O-])c1ccc2c(c1)nnn2O`, the activation was inactive: -1.5%.

With `NC(=O)Nc1ccc([As](=O)(O)O)cc1`, the activation is inactive: -2.4%.

Take `Cc1cc(C)cc(OP(C)(=O)Nc2ccc(C)cc2C)c1` (centres undefined): the activation is inactive: 0.4%.

With `O=[As](O)(c1cccc(O)c1)c1cccc(O)c1`, the activation was inactive: 0.1%.

On to `Cc1cccc(OCC(=O)OC2CN3CCC2CC3)c1` (centres undefined), for which the activation was inactive: -0.1%.

For `CCOC(=O)c1ccc(NP(C)(=O)Oc2cc(C)cc(C)c2)cc1` (centres undefined), the activation was inactive: 5.4%.

Consider `O=C(OC1CN2CCC1CC2)c1ccc(Cl)cc1` (centres undefined), for which the activation was inactive: 0%.

With `COc1ccccc1OP(C)(=O)Nc1cccc(Br)c1` (centres undefined), the activation is inactive: 0.2%.

Consider `CS(=O)(=O)c1ccc(Cl)c(NC(=O)COC(=O)C(O)(c2ccccc2)c2ccccc2)c1`, for which the activation was inactive: 2.6%.

On to `COc1cc(C(=O)NCC2(N3CCOCC3)CCCCC2)cc(Cl)c1OC(C)C`, for which the activation is inactive: 1.1%.

On to `O=[As](O)(O)c1cccnc1`, for which the activation was inactive: -1.4%.

Turning to `CCOP(=O)(Nc1cccc2ccccc12)OCC`, the activation is inactive: -1%.

For `Cc1ccc(NCCc2c([N+](=O)[O-])cc([N+](=O)[O-])cc2[N+](=O)[O-])cc1`, the activation is inactive: 4.1%.

For `CP(=O)(Nc1cccc(Br)c1)Oc1ccccc1` (centres undefined), the activation was inactive: -1.6%.

Regarding `Cc1cc(C)cc(OP(C)(=O)Nc2ccccn2)c1` (centres undefined), the activation is inactive: 0.5%.

Regarding `CCCOP(=S)(Nc1nc(N)cc(=O)[nH]1)OCCC`, the activation is inactive: -0.2%.

In the case of `Cc1ccc(C)c(NP(C)(=O)Oc2ccccc2)c1` (centres undefined), the activation is inactive: -1.7%.

As to `COc1cc(I)ccc1[As](=O)(O)O`, the activation is inactive: 0.4%.

As for `COc1ccc2nc(NP(=O)(c3ccccc3)c3ccccc3)sc2c1`, the activation is inactive: 0.1%.

For the molecule `Cc1c2c(nc3ccccc13)SC(C(Cl)Cl)C2` (centres undefined), the activation is inactive: 2%.

`Cc1cc(=O)[nH]c(N[N+](=O)[O-])n1`: the activation is inactive: 1.3%.

As to `CCN(CC)CCCOC(=O)C(O)(c1ccccc1)c1ccccc1`, the activation was inactive: 0.1%.

As to `O=C(OC1CN2CCC1CC2)C12CC3CC(CC(C3)C1)C2` (centres undefined), the activation was inactive: -0.7%.

Regarding `COc1ccc(N/C(=N/P(=O)(N2CCOCC2)N2CCOCC2)N2CCOCC2)cc1`, the activation is inactive: -0.6%.

In the case of `CC(Cc1ccc(O)cc1)NCC(O)c1cc(O)cc(O)c1` (centres undefined), the activation was inactive: 2.9%.

`Cc1cccc(C)c1OP(C)(N)=O` (centres undefined): the activation is inactive: 1.7%.

For the molecule `CC(C)(C)c1ccc(OP(C)(=O)Nc2ccc(SC(F)(F)F)cc2)cc1` (centres undefined), the activation was inactive: 22.1%.

For the molecule `Cc1ccc(OP(=O)(Nc2ccc([N+](=O)[O-])cn2)Oc2ccc(C)cc2)cc1`, the activation is inactive: 5%.

Turning to `Cc1ccc2nc3c(c(C)c2c1)CC(C(Cl)Cl)S3` (centres undefined), the activation is inactive: 6.8%.

Consider `O=[N+]([O-])c1cc([N+](=O)[O-])c(Nc2cccnc2)c([N+](=O)[O-])c1`, for which the activation was inactive: 7.5%.
